Experiments:
[1] = in vitro
[2] = octanol/water

SMILES | Papp [1] [nm/s] | LogP [2]
Oc1ccccc1 [PHENOL] | 1470 | 
CC(CCc1ccccc1)NCC(O)c1ccc(O)c(C(N)=O)c1 (configuration not stated) [LABETALOL] |  | 3.09
